Molecular target: XOR1 (opioid receptor-like orphan receptor) (Rattus norvegicus, UniProt P35370)
Conditions: for EC50: read-out: EC50 of XOR1-mediated activation of the K+ channel (KGA)

Protein sequences, listed by entry. Tags and fused reporters are not part of them. Lines headed by an entry give the natural chain unless they say otherwise; changes in a name come on top.
UniProt P35370: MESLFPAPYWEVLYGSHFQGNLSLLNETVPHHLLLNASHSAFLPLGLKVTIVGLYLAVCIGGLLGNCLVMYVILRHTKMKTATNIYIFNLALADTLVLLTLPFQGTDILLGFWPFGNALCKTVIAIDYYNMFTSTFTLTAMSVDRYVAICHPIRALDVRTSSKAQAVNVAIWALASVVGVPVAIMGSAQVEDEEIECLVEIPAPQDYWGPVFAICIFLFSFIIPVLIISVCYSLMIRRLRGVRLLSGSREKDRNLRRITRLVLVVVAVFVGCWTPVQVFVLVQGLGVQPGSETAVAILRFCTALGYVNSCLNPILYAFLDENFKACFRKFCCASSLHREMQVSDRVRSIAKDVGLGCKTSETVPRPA

Compound	membrane currents evoked by endogenous opioid ligands (activation of XOR1)	EC50
CC[C@H](C)[C@H](NC(=O)[C@H](CCCNC(=N)N)NC(=O)[C@H](CCCNC(=N)N)NC(=O)[C@H](CC(C)C)NC(=O)[C@H](Cc1ccccc1)NC(=O)CNC(=O)CNC(=O)[C@@H](N)Cc1ccc(O)cc1)C(=O)N[C@@H](CCCNC(=N)N)C(=O)N1CCC[C@H]1C(=O)N[C@@H](CCCCN)C(=O)N[C@@H](CC(C)C)C(=O)N[C@@H](CCCCN)C(=O)N[C@@H](Cc1c[nH]c2ccccc12)C(=O)N[C@@H](CC(=O)O)C(=O)N[C@@H](CC(N)=O)C(=O)N[C@@H](CCC(N)=O)C(=O)O [dyn A, dynorphin A]	most potent ones	45 ± 6 nM
CC[C@H](C)[C@H](NC(=O)[C@H](CCCNC(=N)N)NC(=O)[C@H](CCCNC(=N)N)NC(=O)[C@H](CC(C)C)NC(=O)[C@H](Cc1ccccc1)NC(=O)CNC(=O)CNC(=O)[C@@H](N)Cc1ccc(O)cc1)C(=O)N[C@@H](CCCNC(=N)N)C(=O)N1CCC[C@H]1C(=O)N[C@@H](CCCCN)C(=O)N[C@@H](CC(C)C)C(=O)N[C@@H](CCCCN)C(=O)O [dyn A-(1-13), dynorphin A (1-13)]	most potent ones	37 ± 9 nM

Source: patent US5866346A (priority 1997, dated 1999)
